Laboratory results reported in EP4563146A1 (IRBM S.P.A., priority 2023, dated 2025).

Legend:
[1] = biological target: DEN1V NS2B-G4SG4NS3 serine protease (Dengue virus type 1, UniProt P17763); test: DEN1V protease inhibition assay
[2] = biological target: DEN2V NS2B-G4SG4-NS3 serine protease (Dengue virus type 2, UniProt Q91H74); test: DEN2V protease inhibition assay
[3] = biological target: DEN4V NS2B-G4SG4NS3 serine protease (Dengue virus type 4, UniProt P09866); test: DEN4V protease inhibition assay
[4] = biological target: DEN3V NS2B-G4SG4NS3 serine protease (Dengue virus type 3, UniProt Q6YMS4); test: DEN3V protease inhibition assay

Structure (SMILES) | pIC50 [1] | pIC50 [2] | pIC50 [3] | pIC50 [4] | pIC50 ([1]; read-out: Dengue 1 - NS3 protease) | pIC50 ([2]; read-out: Dengue 2 - NS3 protease) | pIC50 ([3]; read-out: Dengue 4 - NS3 protease) | pIC50 ([4]; read-out: Dengue 3 - NS3 protease)
CN(C)C[C@H]1CC[C@@H]([n+]2cc([N-]C(=O)Nc3cc(N4CCC(c5ccccc5)C4=O)cc(C(F)(F)F)c3)on2)CC1 (stereo partly drawn) [Example 138, (3-((1S,4S)-4-((Dimethylamino)methyl)-cyclohexyl)-1,2,3-oxadiazol-3-ium-5-yl)((3-(2-oxo-3-phenylpyrrolidin-1-yl)-5-(trifluoromethyl)-phenyl)carbamoyl)amide] | 4.70 to 6.00 | > 7.00 | 4.70 to 6.00 | 6.00 to 7.00 | – | – | – | –
COC(=O)Cc1ccc(C[n+]2cc([N-]C(=O)Nc3cc(NC(=O)Cc4ccccc4)cc(C(F)(F)F)c3)on2)cc1 [Example 109, (3-(4-(2-Methoxy-2-oxoethyl)benzyl)-1,2,3-oxadiazol-3-ium-5-yl)((3-(2-phenylacetamido)-5-(trifluoromethyl)phenyl)carbamoyl)amide] | 4.70 to 6.00 | > 7.00 | 6.00 to 7.00 | > 7.00 | – | – | – | –
O=C(Cc1ccccc1)Nc1cc(NC(=O)[N-]c2c[n+](Cc3ccc(CO)cc3)no2)cc(C(F)(F)F)c1 [Example 102, (3-(4-(Hydroxymethyl)benzyl)-1,2,3-oxadiazol-3-ium-5-yl)((3-(2-phenylacetamido)-5-(trifluoromethyl)phenyl)carbamoyl)amide] | 4.70 to 6.00 | > 7.00 | 6.00 to 7.00 | > 7.00 | – | – | – | –
NC(=O)c1ccc(C[n+]2cc([N-]C(=O)Nc3cc(NC(=O)Cc4ccccc4)cc(C(F)(F)F)c3)on2)cc1 [Example 104, (3-(4-Carbamoylbenzyl)-1,2,3-oxadiazol-3-ium-5-yl)((3-(2-phenylacetamido)-5-(trifluoromethyl)phenyl)carbamoyl)amide] | 4.70 to 6.00 | > 7.00 | 6.00 to 7.00 | > 7.00 | – | – | – | –
C[n+]1cc([N-]C(=O)Nc2cc(NC(=O)Cc3ccccc3)cc(C(F)(F)F)c2)on1 [Example 4, (3-Methyl-1,2,3-oxadiazol-3-ium-5-yl)((3-(2-phenylacetamido)-5-(trifluoromethyl)phenyl)carbamoyl)amide] | < 4.70 | 6.00 to 7.00 | 4.70 to 6.00 | 4.70 to 6.00 | – | – | – | –
NC[C@H]1CC[C@@H]([n+]2cc([N-]C(=O)Nc3cc(NC(=O)Cc4ccccc4)cc(C(F)(F)F)c3)on2)CC1 [Example 59, (3-((1S,4S)-4-(Aminomethyl)cyclohexyl)-1,2,3-oxadiazol-3-ium-5-yl)((3-(2-phenyl-acetamido)-5-(trifluoromethyl)phenyl)-carbamoyl)amide] | 4.70 to 6.00 | > 7.00 | 4.70 to 6.00 | 6.00 to 7.00 | – | – | – | –
O=C(Cc1c[nH]c2cccnc12)Nc1cc(NC(=O)[N-]c2c[n+](Cc3ccccn3)no2)cc(C(F)(F)F)c1 [Example 36] | – | – | – | – | 4.70 to 6.00 | > 7.00 | 6.00 to 7.00 | > 7.00
O=C(Cc1ccc2nc[nH]c2c1)Nc1cc(NC(=O)[N-]c2c[n+](Cc3ccccn3)no2)cc(C(F)(F)F)c1 [Example 124, ((3-(2-(1H-Benzo[d]imidazol-6-yl)acetamido)-5-(trifluoromethyl)phenyl)carbamoyl)(3-(pyridin-2-ylmethyl)-1,2,3-oxadiazol-3-ium-5-yl)amide] | 4.70 to 6.00 | > 7.00 | 4.70 to 6.00 | 6.00 to 7.00 | – | – | – | –
N[C@H]1CC[C@@H]([n+]2cc([N-]C(=O)Nc3cc(NC(=O)Cc4ccccc4)cc(C(F)(F)F)c3)on2)CC1 [Example 91, (3-((1S,4S)-4-Aminocyclohexyl)-1,2,3-oxadiazol-3-ium-5-yl)((3-(2-phenylacetamido)-5-(trifluoromethyl)phenyl)carbamoyl)amide] | 4.70 to 6.00 | > 7.00 | 4.70 to 6.00 | 6.00 to 7.00 | – | – | – | –
NCc1ccc(C[n+]2cc([N-]C(=O)Nc3cc(NC(=O)Cc4ccccc4)cc(C(F)(F)F)c3)on2)cc1 [Example 56, (3-(4-(Aminomethyl)benzyl)-1,2,3-oxadiazol-3-ium-5-yl)((3-(2-phenylacetamido)-5-(trifluoromethyl)phenyl)carbamoyl)amide] | 4.70 to 6.00 | > 7.00 | 6.00 to 7.00 | > 7.00 | – | – | – | –

pIC50: −log10 of the molar value. Like-named read-outs stand apart in the source and are kept apart here.
